Reference: ChEMBL document CHEMBL5528082 (J Med Chem, 2024)

Test: Selectivity ratio of IC50 for human DHFR to IC50 for Staphylococcus aureus DHFR expressed in Escherichia coli BL21 (DE3) using DHF as substrate

SMILES: COc1cc(C(C)C)c(Oc2cnc(N)nc2N)cc1-c1ccc(C(C)C)cc1
- Ratio IC50: 1610

SMILES: CC(C)c1cc(OCC2CC2)c(I)cc1Oc1cnc(N)nc1N
- Ratio IC50: 4320
